Ab-14 heavy chain CDR variants: yeast mating affinities

Reference: Li et al. 2023, doi:10.1038/s41467-023-39022-2. File: FLAb, binding data.

Target: peptide PDVDLGDISGINAS, taken from heptad repeat 2 (HR2) of SARS-CoV-2 spike.

The variants keep the light chain, the linker and the frameworks of Ab-14 (scFv order VH, three GGGGS repeats, VL).
VH: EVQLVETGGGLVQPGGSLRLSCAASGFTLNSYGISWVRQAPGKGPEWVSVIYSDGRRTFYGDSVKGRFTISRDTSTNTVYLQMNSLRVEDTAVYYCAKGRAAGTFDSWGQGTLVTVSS
VL: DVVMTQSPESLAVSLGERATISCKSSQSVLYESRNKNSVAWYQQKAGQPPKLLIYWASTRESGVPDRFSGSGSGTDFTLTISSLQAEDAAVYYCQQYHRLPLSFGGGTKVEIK

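The parent was found by panning a naive human phage display library on the peptide. Designed CDR sequences, proposed from the first random library and measured here. Several design methods are mixed in this list. AlphaSeq pools MATa yeast showing the antibodies with MATalpha yeast showing the peptide. After mating in shaken culture at 30 °C for 16 h, diploids were selected and their barcode pairs sequenced. Scores were corrected for input abundance and mapped to Kd with protein pairs of known affinity run in the same pool. Each pool was mated in six replicate cultures.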

Substitutions are numbered in sequence along the VH above, starting at 1 (not Kabat).
This list holds designs with at most six substitutions.
Kd is apparent (estimated from mating counts) and averaged on the log scale over replicates with a signal. Smaller is tighter.
"not detected" marks a missing value. The strain was present, yet no cells mated with the target were sequenced in any replicate, which points to weak or no binding.
As a blank, each scFv also met three strains without target: over all heavy chain designs, 1% of these pairings were detected, typically at 120 nM and seldom below 7.0 nM. The control count says in how many pairings with the empty strains this scFv gave a signal.

changes	Kd (apparent)	seen in	control signals
S63A V64L	not detected	0/6	0/18
S53A R100K S107A	1.2 nM	6/6	0/18
T28A S107Q	1.0 µM	1/6	0/18
G26H T28N G61I R100Q	not detected	0/6	0/18
T28N S31E S53A G61A R100E A101I	280 pM	6/6	0/18
N30D R56E R100P	not detected	0/6	1/18
N30E R56L G61V R100S D106E	not detected	0/6	0/18
T28N G61A R100N A101E	870 pM	6/6	0/18
T28N S31E G61T A101E	4.0 nM	6/6	0/18
T28D G61A A101E S107N	4.8 nM	6/6	1/18
T28H G61H R100K A101V	38 nM	5/6	0/18
R100Q A101E S107A	13 nM	6/6	0/18
T28W S53A R100W	5.1 nM	2/6	0/18
T28D Y60E D62I T104W D106N	not detected	0/6	0/18
T28S S31E F59W G61T A101F	2.2 nM	6/6	1/18
N30Y S53A	1.8 nM	6/6	0/18
A101H G103V	not detected	0/6	0/18
T28N S31E R56Y A101L T104I	270 nM	1/6	0/18
T28S S31W G61I R100Q	not detected	0/6	0/18
T28D G61A R100E	5.6 nM	6/6	0/18
N30Q G61H R100E T104K D106F	not detected	0/6	0/18
T28P S31E	15 nM	12/12	1/36
T28S S31E G61C R100F S107R	32 nM	1/6	0/18
T28S L29P A101W	not detected	0/6	0/18
G26K T28S G61S R100K A101N	not detected	0/6	0/18
T28N N30S S31D G61A S63N	22 nM	6/6	0/18
N30A R56C G61N	not detected	0/6	0/18
S53A T58V A101W A102G	26 nM	5/6	0/18
G61K A102T T104F S107W	not detected	0/6	0/18
T28N S63K A101V	10 nM	6/6	0/18
T28E S63D R100V A101E	6.3 nM	6/6	0/18
T28S G61A R100N S107N	5.9 nM	6/6	0/18
T28D G61S R100D S107D	17 nM	5/6	0/18
G61D A102L G103V	not detected	0/6	0/18
T28D R56W Y60H G103M	not detected	0/6	0/18
T28Y G61D A101L	37 nM	1/6	0/18
T28K G61A R100K A101T	29 nM	1/6	1/18
T28E A101T D106W	not detected	0/6	0/18
T28H A101K A102H	710 nM	2/6	0/18
S31E R100H S107A	3.2 nM	6/6	0/18
T28S S31E G61S A101S	530 pM	6/6	1/18
T28M S31Q R56I	52 nM	5/6	0/18
R100K A101Q	62 nM	5/12	0/36
T28N N30Q A101N	5.0 nM	6/6	0/18
T28S G61H A101T	2.7 nM	6/6	0/18
T28E S31D G61A S107E	5.9 nM	6/6	0/18
S31E D62N G103V S107Q	not detected	0/6	0/18
G61T R100E A101F	3.9 nM	5/6	0/18
T28N G61E A101E	980 pM	6/6	0/18
S31E A101T	740 pM	6/6	0/18

Some sequences occur more than once in the pool; their replicates are pooled.
A sequence measured in both rounds can read differently, since the two assays cover different ranges.
The authors' rule: three or more of the six replicates give a measured affinity, fewer mean a poor binder.